Read-outs that look alike come from different tables or passages of the source.
What was measured:
stromelysin = stromelysin (Homo sapiens, UniProt P08254); assay: Inhibition of stromelysin-mediated hydrolysis of substance P (HPLC-based assay); assay type: biochemical
collagenase = collagenase (Homo sapiens, UniProt P03956); assay: Inhibition of collagenase cleavage of thioester peptide Ac-Pro-Leu-Gly-S-Leu-Leu-Gly-OC2H5
[1] = target: 72 kD Galatinase (gelatinase) (Homo sapiens, UniProt P08253); assay: Inhibition of gelatinase-mediated cleavage of fluorogenic substrate Dnp-Pro-Leu-Gly-Leu-Trp-Ala-D-ArgNH2; conditions: read-out: Inhibition of 72 kD Galatinase pH = 7.5 (Ki)
[2] = read-out: Inhibition of Stromelysin pH = 7.5 (IC50)
[3] = read-out: Inhibition of Collagenase pH = 6.5 (IC50)

Amino acid sequences for entries named in this document (tags omitted). Residues count along the entry.
UniProt P08254, 100-477 limits assumed: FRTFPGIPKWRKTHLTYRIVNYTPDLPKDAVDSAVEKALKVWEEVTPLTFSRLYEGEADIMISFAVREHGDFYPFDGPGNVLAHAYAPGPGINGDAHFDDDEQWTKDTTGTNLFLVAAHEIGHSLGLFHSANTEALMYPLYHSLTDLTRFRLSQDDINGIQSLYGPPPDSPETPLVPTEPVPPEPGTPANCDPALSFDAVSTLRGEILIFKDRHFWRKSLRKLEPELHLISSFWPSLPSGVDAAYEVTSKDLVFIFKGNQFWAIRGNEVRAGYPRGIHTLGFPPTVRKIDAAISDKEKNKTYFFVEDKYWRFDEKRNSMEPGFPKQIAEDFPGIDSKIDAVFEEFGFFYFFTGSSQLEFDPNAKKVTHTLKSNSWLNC
UniProt P03956, 100-469 limits assumed: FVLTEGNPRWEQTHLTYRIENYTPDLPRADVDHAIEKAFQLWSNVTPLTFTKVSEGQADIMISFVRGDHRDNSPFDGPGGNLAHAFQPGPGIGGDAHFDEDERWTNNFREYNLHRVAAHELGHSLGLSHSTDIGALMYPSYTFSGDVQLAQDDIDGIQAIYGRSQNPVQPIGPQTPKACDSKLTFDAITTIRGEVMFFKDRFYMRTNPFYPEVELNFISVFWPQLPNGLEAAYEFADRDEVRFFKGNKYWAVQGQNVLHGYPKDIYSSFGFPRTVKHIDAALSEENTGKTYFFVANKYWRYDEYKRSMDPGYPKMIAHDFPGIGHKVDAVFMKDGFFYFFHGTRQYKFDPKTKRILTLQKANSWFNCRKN
UniProt P08253, 110-660 limits assumed: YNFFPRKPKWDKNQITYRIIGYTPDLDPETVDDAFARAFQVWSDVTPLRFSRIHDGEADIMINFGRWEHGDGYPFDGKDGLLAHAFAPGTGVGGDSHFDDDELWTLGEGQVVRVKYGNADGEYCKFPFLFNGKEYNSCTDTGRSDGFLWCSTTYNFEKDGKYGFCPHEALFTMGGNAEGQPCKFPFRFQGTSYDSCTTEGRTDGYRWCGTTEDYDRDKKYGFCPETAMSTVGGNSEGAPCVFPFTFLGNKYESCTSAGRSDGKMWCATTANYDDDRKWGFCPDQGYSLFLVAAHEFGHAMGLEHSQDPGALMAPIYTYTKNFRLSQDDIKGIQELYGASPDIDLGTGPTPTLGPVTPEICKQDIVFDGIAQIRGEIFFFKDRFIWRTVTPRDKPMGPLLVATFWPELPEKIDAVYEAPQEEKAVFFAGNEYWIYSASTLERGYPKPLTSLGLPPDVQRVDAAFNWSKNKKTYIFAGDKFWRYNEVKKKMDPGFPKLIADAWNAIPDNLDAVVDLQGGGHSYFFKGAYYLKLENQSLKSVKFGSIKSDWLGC

| SMILES | IC50 (stromelysin; [2]) [nM] | IC50 (collagenase; [3]) [nM] | Ki [1] [nM] | IC50 (stromelysin; read-out: Inhibition of Stromelysin pH = 7.5 (IC50), tested form: HCl) [nM] | IC50 (collagenase; read-out: Inhibition of Collagenase pH = 6.5 (IC50), tested form: HCl) [nM] |
| --- | --- | --- | --- | --- | --- |
| CC(C)C[C@H](NC(=O)C(CCc1ccccc1)N[C@H](CCCCNC(=O)OCC1c2ccccc2-c2ccccc21)C(=O)O)C(=O)Nc1ccccc1 (stereo partly drawn) | 1400 | 1700 | – | – | – |
| CNC(=O)[C@H](CC(C)C)NC(=O)C(CCc1ccccc1)N[C@H](CCCCN1C(=O)c2ccccc2C1=O)C(=O)O (stereo partly drawn) | 250 | 180 | – | – | – |
| CNC(=O)[C@H](CCCCN)NC(=O)C(CCc1ccccc1)N[C@H](CCCCN1C(=O)c2ccccc2C1=O)C(=O)O (stereo partly drawn) | – | – | – | 1100 | 360 |
| CC(C)C[C@H](NC(=O)C(CCc1ccccc1)N[C@H](CCCCN1C(=O)c2ccccc2C1=O)C(=O)O)C(=O)N[C@@H](Cc1ccccc1)C(N)=O (stereo partly drawn) | 200 | 4000 | – | – | – |

Now from value to compound:

| IC50 (stromelysin; [2]) [nM] | IC50 (collagenase; [3]) [nM] | Ki [1] [nM] | IC50 (stromelysin; read-out: Inhibition of Stromelysin pH = 7.5 (IC50), tested form: HCl) [nM] | IC50 (collagenase; read-out: Inhibition of Collagenase pH = 6.5 (IC50), tested form: HCl) [nM] | SMILES |
| --- | --- | --- | --- | --- | --- |
| 500 | 70 | – | – | – | CC(C)C[C@H](NC(=O)[C@H](CCc1ccccc1)NC(CCCCc1ccccc1)C(=O)O)C(=O)Nc1ccccc1 (stereo partly drawn) |
| 190 | 1400 | – | – | – | CC(C)C[C@H](NC(=O)C(CCCc1ccccc1)N[C@H](CCCCN1C(=O)c2ccccc2C1=O)C(=O)O)C(=O)Nc1ccccc1 (stereo partly drawn) |
| 780 | 2600 | 2100 | – | – | CC(C)C[C@H](NC(=O)C(CCc1ccccc1)NC(CCCc1ccccc1)C(=O)O)C(=O)Nc1ccccc1 (stereo partly drawn) |

From US5932551A, “Substituted N-carboxyalkylpeptidyl derivatives as antidegenerative active agents” (Merck & Co., Inc., priority 1997, dated 1999)
